# OPERA 2.9 data: melting point values

From the experimental data distributed with OPERA 2.9.

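These are experimental values that the OPERA curators gathered from public databases to train and test their QSAR models. A listed value is a point estimate from one report or more. How each value was measured is not recorded, so precision varies. The measured form (salt, isomer or mixture) is not always the one drawn. Some entries may be limits or estimates that an upstream database listed as plain numbers.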

The melting point is given in degrees Celsius.
"n/a" marks a cell with nothing listed here.

melting point (°C)	SMILES	name
185	O=C1CNC2(CCCCC2)C(=O)N1	1,4-diazaspiro[5.5]undecane-3,5-dione
73	NCCCN1CCN(c2ncccn2)CC1	3-(4-pyrimidin-2-ylpiperazin-1-yl)propan-1-amine
203	O=C(O)c1cn(-c2ccccc2)nc1-c1ccccc1	1,3-diphenyl-1H-pyrazole-4-carboxylic acid
101	NC(=O)CCc1ccccc1	beta-Phenylpropionamide
103	Cc1cc(N)n(-c2ccccn2)n1	3-Methyl-1-(pyridin-2-yl)-1H-pyrazol-5-amine
163	S=c1nn[nH]n1-c1ccc(Cl)cc1	1-(4-Chlorophenyl)tetrazole-2-thione
49	O=S(=O)(Cl)c1ccc(Cl)nc1	6-Chloropyridine-3-sulfonyl chloride
181	O=c1c2cc(Cl)ccc2nc2n1CCC2	7-Chloro-2,3-dihydropyrrolo[2,1-b]quinazolin-9(1H)-one
139	O=C(O)c1ccn(-c2ccccc2)n1	1-Phenyl-1H-pyrazole-3-carboxylic acid
92	OCc1cn(-c2ccccc2)nc1-c1ccccc1	(1,3-diphenyl-1h-pyrazol-4-yl)-methanol
72.5	Nc1cc(C(F)(F)F)ccc1NCc1ccccc1	N~1~-Benzyl-4-(trifluoromethyl)benzene-1,2-diamine
136	CCn1c(=S)[nH]c2ccccc21	1-Ethyl-1H-benzoimidazole-2-thiol
205	CC(C)(C)OC(=O)NC1CCN(CC(=O)O)CC1	{4-[(tert-Butoxycarbonyl)amino]piperidin-1-yl}acetic acid
136	CC(C)CC(C(=O)O)N1C(=O)C2CC=CCC2C1=O (centres undefined)	n/a
233	NC(=O)NN=Cc1ccccc1O	Salicylaldehyde, semicarbazone
216	NC(C(=O)O)c1ccc(Cl)cc1Cl (centres undefined)	2-amino-2-(2,4-dichlorophenyl)acetic Acid
-22	CCCCCCCCC1CO1 (centres undefined)	1,2-Epoxydecane
184	NC(=O)c1cc(Br)ccc1N	2-amino-5-bromobenzamide
94	CCNC(=S)n1ncc(C(=O)OCC)c1N	n/a
92.5	O=C1N[C@@H](Cc2ccccc2)[C@@H](CCC(F)(F)C(F)(F)C(F)(F)C(F)(F)C(F)(F)C(F)(F)F)O1	n/a
105	Cc1cccc(C)c1NC(=O)CCCCl	4-Chloro-N-(2,6-dimethylphenyl)butanamide
150	Cc1ccc(C)c(S(N)(=O)=O)c1	2,5-dimethylbenzenesulfonamide
189	CC(=O)NCc1ccc(C(=O)O)cc1	4-(acetamidomethyl)benzoic acid
213	O=C(O)c1cn[nH]n1	4-Carboxy-1,2,3-triazole
253	S=c1[nH]nc2sc3ccccc3n12	s-Triazolo(3,4-b)benzothiazole-3-thiol
180	NS(=O)(=O)c1cc(Cl)ccc1Cl	2,5-dichlorobenzenesulfonamide
50	Clc1ccc(Oc2ccc(Cl)cc2Cl)cc1	2,4,4'-trichlorodiphenyl ether
75	CC(C)C(=O)Nc1ccc(N)cc1	N-(4-aminophenyl)-2-methylpropanamide
-44.5	CCCCCCOCCCCCC	Hexane, 1,1'-oxybis-
265	O=C(O)c1ccc2c(c1)-c1ccccc1C2	9H-fluorene-3-carboxylic Acid
166.5	Cc1cc(C)c(C)c(S(=O)(=O)NCC(=O)O)c1C	(2,3,5,6-Tetramethyl-benzenesulfonylamino)-acetic acid
236	CC(=O)C(N=Nc1ccc(C)cc1[N+](=O)[O-])C(=O)Nc1ccc(Cl)cc1 (centres undefined)	n/a
205	S=c1[nH]cccc1Cl	3-Chloropyridine-2(1H)-thione

Excerpt, the opening 4 entries:

| SMILES | name | melting point (°C) |
|---|---|---|
| O=C1CNC2(CCCCC2)C(=O)N1 | 1,4-diazaspiro[5.5]undecane-3,5-dione | 185 |
| NCCCN1CCN(c2ncccn2)CC1 | 3-(4-pyrimidin-2-ylpiperazin-1-yl)propan-1-amine | 73 |
| O=C(O)c1cn(-c2ccccc2)nc1-c1ccccc1 | 1,3-diphenyl-1H-pyrazole-4-carboxylic acid | 203 |
| NC(=O)CCc1ccccc1 | beta-Phenylpropionamide | 101 |